Assays:
[1] = molecular target: T1, Tyrosine-protein kinase ZAP-70 (Homo sapiens, UniProt P43403); experiment: Inhibition of Zap70 by radioactive filtration assay
T1 sequence (P43403 whole entry): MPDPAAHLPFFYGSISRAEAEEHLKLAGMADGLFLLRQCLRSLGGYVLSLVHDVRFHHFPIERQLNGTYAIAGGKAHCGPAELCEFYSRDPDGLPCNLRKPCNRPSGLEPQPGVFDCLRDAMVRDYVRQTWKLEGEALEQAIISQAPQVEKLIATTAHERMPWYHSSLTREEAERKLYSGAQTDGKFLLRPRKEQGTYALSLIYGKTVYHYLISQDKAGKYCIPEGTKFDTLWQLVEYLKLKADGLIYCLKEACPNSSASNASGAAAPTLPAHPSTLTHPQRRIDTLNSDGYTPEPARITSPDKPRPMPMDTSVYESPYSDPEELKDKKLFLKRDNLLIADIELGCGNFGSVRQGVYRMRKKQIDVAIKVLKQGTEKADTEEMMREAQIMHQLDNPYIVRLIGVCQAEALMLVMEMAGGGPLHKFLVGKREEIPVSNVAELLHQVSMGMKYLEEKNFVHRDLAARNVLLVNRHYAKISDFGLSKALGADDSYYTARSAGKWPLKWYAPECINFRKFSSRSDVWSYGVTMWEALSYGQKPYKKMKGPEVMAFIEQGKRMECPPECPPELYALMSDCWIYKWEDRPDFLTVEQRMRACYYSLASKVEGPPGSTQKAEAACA

Sequences of proteins named here, by UniProt entry; tags and fusion partners are left off. A change or cut given only in a name is not applied to a line headed by its entry.
UniProt P08581: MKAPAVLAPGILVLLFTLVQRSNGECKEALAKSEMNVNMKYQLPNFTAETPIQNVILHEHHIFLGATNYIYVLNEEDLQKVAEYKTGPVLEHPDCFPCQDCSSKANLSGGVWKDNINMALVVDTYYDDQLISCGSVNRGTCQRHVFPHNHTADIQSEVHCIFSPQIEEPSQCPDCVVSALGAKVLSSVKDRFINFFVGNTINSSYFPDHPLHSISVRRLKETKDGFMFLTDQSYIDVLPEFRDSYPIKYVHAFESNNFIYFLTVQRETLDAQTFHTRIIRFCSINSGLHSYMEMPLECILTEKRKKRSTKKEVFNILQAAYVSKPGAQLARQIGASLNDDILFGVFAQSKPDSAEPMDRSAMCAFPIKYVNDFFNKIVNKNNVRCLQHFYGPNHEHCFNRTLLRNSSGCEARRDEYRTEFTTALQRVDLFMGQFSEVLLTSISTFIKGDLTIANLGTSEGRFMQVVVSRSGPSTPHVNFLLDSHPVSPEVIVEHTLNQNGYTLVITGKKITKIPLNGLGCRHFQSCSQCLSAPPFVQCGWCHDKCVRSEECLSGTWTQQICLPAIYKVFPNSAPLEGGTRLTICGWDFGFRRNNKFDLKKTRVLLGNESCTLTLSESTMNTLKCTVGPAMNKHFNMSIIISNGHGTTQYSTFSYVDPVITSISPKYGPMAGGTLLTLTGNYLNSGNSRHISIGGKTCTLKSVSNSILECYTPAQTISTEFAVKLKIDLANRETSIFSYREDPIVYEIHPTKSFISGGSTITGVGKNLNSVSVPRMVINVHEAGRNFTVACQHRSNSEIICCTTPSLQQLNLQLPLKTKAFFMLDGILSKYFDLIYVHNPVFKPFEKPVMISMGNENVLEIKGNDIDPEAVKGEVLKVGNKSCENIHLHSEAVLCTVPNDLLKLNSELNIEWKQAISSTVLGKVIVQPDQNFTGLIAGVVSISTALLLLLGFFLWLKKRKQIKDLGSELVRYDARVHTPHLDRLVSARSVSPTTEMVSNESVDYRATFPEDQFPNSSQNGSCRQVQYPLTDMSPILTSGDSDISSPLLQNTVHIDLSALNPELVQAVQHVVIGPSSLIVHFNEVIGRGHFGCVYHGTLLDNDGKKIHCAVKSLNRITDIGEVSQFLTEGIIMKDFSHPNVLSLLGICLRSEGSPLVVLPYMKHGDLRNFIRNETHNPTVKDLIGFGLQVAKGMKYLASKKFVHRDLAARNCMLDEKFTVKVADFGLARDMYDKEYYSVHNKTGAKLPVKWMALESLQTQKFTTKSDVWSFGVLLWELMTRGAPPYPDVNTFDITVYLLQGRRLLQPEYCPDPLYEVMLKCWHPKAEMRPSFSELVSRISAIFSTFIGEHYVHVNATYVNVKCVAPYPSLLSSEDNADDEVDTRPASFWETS

[2] = molecular target: Hepatocyte growth factor receptor (Homo sapiens, UniProt P08581); experiment: Inhibition of cMet by radioactive filtration assay

Compound `CNc1ncnc(-c2cccnc2Oc2cc(NC(=O)c3cccc(OC(F)(F)C(F)F)c3)ccc2C)n1` has an IC50 [1] of 25 µM and an IC50 [2] of 25 µM.

From ChEMBL document CHEMBL1139197, “Synthesis, structural analysis, and SAR studies of triazine derivatives as potent, selective Tie-2 inhibitors” (Bioorg Med Chem Lett, 2007)
